# Reference: patent US20090286252A1 (NEW YORK UNIVERSITY, published 2009)
# Legend:
# LexA alone [1] = molecular target: T1, LexA alone (UniProt P0A7C2 1-202); experiment: yeast two-hybrid, β-galactosidase (FIG. 1)
# T1 construct: Negative control bait; also called bait LexA alone (negative control)
# T1 sequence (looked up): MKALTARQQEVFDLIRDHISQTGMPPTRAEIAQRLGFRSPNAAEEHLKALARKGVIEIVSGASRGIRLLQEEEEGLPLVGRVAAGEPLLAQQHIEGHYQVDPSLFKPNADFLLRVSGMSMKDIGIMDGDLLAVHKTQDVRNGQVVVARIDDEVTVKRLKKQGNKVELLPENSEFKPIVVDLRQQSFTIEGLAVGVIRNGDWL
# Method: (§1) The following receptor baits were used: LexA-cTRα LBD, LexA-hTRβ LBD, LexA-hRARα LBD, LexA-hRXRα LBD, and LexA-hGR LBD. […] Yeast cells harboring appropriate plasmids were grown in selective media with Gal/Raf in the presence or absence of cognate ligand (1 μM T3 for TR, all trans or 9-cis RA for RAR, 9-cis RA for RXR, and 10 μM deoxycorticosterone for GR) overnight before β-galactosidase activity was assayed using o-Nitrophenyl β-D-Galactopyranoside as the substrate. β-galactosidase units are expressed as (O.D. 420 nm×1000)/(minutes of incubation×O.D. 600 nm of yeast suspension).
# LexA-hGR LBD [2] = molecular target: T2, LexA-hGR LBD (human, UniProt P0A7C2 1-202; P04150 485-777, limits assumed); experiment: cell-based or functional assay
# T2 sequence (looked up): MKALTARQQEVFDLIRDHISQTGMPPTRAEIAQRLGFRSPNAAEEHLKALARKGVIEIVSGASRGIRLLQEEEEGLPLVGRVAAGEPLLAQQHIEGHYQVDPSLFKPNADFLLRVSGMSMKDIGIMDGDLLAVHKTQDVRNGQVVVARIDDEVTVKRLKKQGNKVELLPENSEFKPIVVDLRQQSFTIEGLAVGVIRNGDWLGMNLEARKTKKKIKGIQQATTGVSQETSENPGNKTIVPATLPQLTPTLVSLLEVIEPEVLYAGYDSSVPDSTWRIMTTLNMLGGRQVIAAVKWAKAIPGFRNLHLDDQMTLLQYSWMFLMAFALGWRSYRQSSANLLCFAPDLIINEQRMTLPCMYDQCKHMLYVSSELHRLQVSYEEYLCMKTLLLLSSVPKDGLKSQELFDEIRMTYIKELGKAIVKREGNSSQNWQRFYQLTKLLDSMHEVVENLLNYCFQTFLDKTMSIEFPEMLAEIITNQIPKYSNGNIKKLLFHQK
# LexA-hRARα LBD [3] = molecular target: T3, LexA-hRARα LBD (human, UniProt P0A7C2 1-202; P10276 154-462, limits assumed); experiment: cell-based or functional assay
# T3 sequence (looked up): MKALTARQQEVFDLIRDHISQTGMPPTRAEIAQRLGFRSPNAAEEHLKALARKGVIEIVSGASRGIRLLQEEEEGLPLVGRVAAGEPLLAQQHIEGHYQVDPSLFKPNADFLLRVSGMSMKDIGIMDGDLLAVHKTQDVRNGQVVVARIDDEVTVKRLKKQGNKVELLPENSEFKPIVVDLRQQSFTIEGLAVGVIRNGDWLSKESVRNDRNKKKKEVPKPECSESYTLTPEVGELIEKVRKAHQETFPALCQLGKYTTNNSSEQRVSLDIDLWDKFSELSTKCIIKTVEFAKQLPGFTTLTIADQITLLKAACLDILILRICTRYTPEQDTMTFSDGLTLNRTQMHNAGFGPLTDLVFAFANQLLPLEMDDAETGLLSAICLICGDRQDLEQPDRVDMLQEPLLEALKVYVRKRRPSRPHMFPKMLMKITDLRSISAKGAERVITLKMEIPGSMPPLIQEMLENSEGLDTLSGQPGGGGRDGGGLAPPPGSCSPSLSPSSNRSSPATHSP
# LexA-cTRα LBD = molecular target: T4, LexA-cTRα LBD (chicken, UniProt P0A7C2 1-202; P04625 120-408, limits assumed); experiment: cell-based or functional assay
# T4 sequence (looked up): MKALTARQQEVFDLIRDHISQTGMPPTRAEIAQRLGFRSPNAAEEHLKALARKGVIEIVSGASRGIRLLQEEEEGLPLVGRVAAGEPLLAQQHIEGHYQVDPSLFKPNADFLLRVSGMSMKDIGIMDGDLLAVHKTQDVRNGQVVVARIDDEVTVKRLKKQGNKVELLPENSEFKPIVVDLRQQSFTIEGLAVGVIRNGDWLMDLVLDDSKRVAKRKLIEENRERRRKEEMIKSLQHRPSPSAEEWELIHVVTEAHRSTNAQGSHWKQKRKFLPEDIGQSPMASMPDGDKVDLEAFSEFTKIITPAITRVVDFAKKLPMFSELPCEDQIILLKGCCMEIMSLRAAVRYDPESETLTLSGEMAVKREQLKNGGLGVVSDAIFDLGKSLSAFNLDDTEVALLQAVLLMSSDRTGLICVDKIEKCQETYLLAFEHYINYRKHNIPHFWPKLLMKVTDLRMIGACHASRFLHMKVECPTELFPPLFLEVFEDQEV
# LexA-hRXRα LBD = molecular target: T5, LexA-hRXRα LBD (human, UniProt P0A7C2 1-202; P19793 198-462, limits assumed); experiment: cell-based or functional assay
# T5 sequence (looked up): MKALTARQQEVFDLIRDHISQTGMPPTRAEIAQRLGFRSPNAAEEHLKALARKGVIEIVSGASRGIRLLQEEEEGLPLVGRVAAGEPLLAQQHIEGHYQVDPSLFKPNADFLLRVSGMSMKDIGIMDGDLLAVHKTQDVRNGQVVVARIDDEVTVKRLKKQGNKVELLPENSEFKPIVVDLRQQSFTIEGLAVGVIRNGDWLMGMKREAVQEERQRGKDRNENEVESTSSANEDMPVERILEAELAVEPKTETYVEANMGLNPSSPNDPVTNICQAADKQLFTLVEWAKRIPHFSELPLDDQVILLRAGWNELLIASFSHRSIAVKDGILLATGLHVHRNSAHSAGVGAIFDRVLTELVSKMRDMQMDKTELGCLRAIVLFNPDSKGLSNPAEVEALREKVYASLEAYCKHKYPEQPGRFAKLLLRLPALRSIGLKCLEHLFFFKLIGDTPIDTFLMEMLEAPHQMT
# LexA alone [4] = molecular target: T1, LexA alone; experiment: cell-based or functional assay
# LexA-hGR LBD [5] = molecular target: T2, LexA-hGR LBD; experiment: yeast two-hybrid, β-galactosidase (Table 1)
# Method: as §1
# LexA-hRARα LBD [6] = molecular target: T3, LexA-hRARα LBD; experiment: yeast two-hybrid, β-galactosidase (Table 1)
# Method: as §1
# full length hRXRα = molecular target: T6, full length hRXRα (human, UniProt P19793 1-462, ^35S-labeled in the in vitro binding assay); experiment: in vitro GST binding assay, ^35S-labeled receptor, autoradiography (FIG. 4)
# T6 construct: domain: full length; In vitro transcribed/translated for the GST assay; expressed from a vector in HeLa cells for the transfection studies
# T6 sequence (looked up): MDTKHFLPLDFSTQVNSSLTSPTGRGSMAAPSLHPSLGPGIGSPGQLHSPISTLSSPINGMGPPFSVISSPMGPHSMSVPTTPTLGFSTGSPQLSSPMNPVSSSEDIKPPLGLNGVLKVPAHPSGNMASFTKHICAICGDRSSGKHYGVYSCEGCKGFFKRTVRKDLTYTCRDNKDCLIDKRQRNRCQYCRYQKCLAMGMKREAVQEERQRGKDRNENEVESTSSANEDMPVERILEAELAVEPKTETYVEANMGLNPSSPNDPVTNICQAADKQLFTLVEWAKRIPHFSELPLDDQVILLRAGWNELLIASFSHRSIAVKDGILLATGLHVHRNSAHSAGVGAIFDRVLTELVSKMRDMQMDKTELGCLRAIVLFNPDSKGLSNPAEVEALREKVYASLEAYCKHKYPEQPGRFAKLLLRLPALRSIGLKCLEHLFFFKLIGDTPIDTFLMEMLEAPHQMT
# full length cTRα = molecular target: T7, full length cTRα (chicken, UniProt P04625 1-408, ^35S-labeled in the in vitro binding assay); experiment: in vitro GST binding assay, ^35S-labeled receptor, autoradiography; poor interaction without T3 (FIG. 4)
# T7 construct: domain: full length; In vitro transcribed/translated in reticulocyte lysate for the GST assay; expressed from a vector in HeLa cells for the transfection studies
# T7 sequence (looked up): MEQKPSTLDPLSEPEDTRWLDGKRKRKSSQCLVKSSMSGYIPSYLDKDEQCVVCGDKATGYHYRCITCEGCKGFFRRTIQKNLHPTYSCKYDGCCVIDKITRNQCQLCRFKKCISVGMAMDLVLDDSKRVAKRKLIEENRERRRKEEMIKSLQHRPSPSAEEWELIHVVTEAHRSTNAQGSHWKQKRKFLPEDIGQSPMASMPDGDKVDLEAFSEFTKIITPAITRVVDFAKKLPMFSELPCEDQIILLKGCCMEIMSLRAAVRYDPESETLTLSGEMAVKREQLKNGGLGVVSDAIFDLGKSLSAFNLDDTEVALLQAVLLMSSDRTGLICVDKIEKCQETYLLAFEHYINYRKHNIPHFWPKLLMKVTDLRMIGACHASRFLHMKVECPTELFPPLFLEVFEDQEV
Binder,binding result (LexA alone [1]),Fold Stimulation of β-galactosidase activity by ligand (LexA-hGR LBD [2]) [fold],"β-galactosidase activity, ligand - (yeast two-hybrid LacZ reporter) (LexA-hGR LBD [2])",Fold Stimulation of β-galactosidase activity by ligand (LexA-hRARα LBD [3]) [fold],"β-galactosidase activity, ligand - (yeast two-hybrid LacZ reporter) (LexA-hRARα LBD [3])",Fold Stimulation of β-galactosidase activity by ligand (T3) (LexA-cTRα LBD) [fold],"β-galactosidase activity, ligand - (yeast two-hybrid LacZ reporter) (LexA-cTRα LBD)",Fold Stimulation of β-galactosidase activity by ligand (9-cis RA) (LexA-hRXRα LBD) [fold],"β-galactosidase activity, ligand - (yeast two-hybrid LacZ reporter) (LexA-hRXRα LBD)",Fold Stimulation of β-galactosidase activity by ligand (LexA alone [4]) [fold],binding result (LexA-hGR LBD [5]),binding result (LexA-hRARα LBD [6]),binding result (full length hRXRα),binding result (full length cTRα)
"NRIF3 fused to the B42 activation domain (other, not shown: large carriers, Yeast two-hybrid prey; B42 is placed first as for the other pJG4-5 preys printed 'B42-...'; also called NRIF3-B42; wild type NRIF3 (WT)) MPVKRSLKLDGLLEENSFDPSKITRKKSVITYSPTTGTCQMSLFASPTSSEEQKHRNGLSNEKRKKLNHPSLTESKESTTKDNDEFMMLLSKVEKLSEEIMEIMQNLSSIQALEGSRELENLIGISCASHFLKREMQKTKELMTKVNKQKLFEKSTGLPHKASRHLDSYEFLKAILN",no binding,0.8,0.8 β-galactosidase units,1,0.1 β-galactosidase units,69,1.8 β-galactosidase units,315,0.2 β-galactosidase units,0.8,no binding,no binding,,
"GST-NRIF3 fusion protein (other, not shown: glutathione S-transferase (GST) of vector pGEX2T (Pharmacia)) MPVKRSLKLDGLLEENSFDPSKITRKKSVITYSPTTGTCQMSLFASPTSSEEQKHRNGLSNEKRKKLNHPSLTESKESTTKDNDEFMMLLSKVEKLSEEIMEIMQNLSSIQALEGSRELENLIGISCASHFLKREMQKTKELMTKVNKQKLFEKSTGLPHKASRHLDSYEFLKAILN",,,,,,,,,,,,,binds,binds
